## AlphaSeq binding of Ab-14 heavy chain variants to a spike HR2 peptide

From the AlphaSeq antibody data of Li et al. 2023 (doi:10.1038/s41467-023-39022-2), copy in the FLAb collection.

Target: peptide PDVDLGDISGINAS, taken from heptad repeat 2 (HR2) of SARS-CoV-2 spike.

Each scFv is VH, the linker GGGGSGGGGSGGGGS, VL, as in the parent Ab-14, and differs from it in the CDRs of the heavy chain only.
VH: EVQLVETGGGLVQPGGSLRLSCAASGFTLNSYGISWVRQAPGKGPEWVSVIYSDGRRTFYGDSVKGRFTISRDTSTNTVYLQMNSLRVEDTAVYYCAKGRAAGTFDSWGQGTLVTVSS
VL: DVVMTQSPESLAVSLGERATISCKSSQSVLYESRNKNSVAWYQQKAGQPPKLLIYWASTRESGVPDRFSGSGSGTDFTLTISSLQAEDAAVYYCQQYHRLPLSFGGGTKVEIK

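The parent was found by panning a naive human phage display library on the peptide. This is the validation round: designs drawn from the data on random variants, tested in the same kind of assay. Group labels follow the data file (Ctrl: baseline library sampled from a position-specific scoring matrix, with some repeated check sequences; Rand: our label for a block that the file lists under HC and that is probably the random mutants of the ten best first-round binders; En: ensemble of fine-tuned language models; GP: Gaussian process model; GPLM: also part of the Gaussian process libraries; HC: hill climbing; Gen: genetic algorithm; Gibbs: Gibbs sampling; a sequence that several methods proposed may carry one label only). AlphaSeq pools MATa yeast showing the antibodies with MATalpha yeast showing the peptide. The frequency of each diploid, read from paired DNA barcodes, reflects how well the two displayed proteins bind. Read counts were normalised to the haploid input and turned into Kd by a linear fit to BCL2-family pairs of known affinity, for each replicate. There are six technical replicates.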

Variants are written as CDR1, CDR2 and CDR3 of the heavy chain (limits as in the source). Parent: GFTLNSYGIS, VIYSDGRRTFYGDSVK, GRAAGTFDS. The read-out is the apparent dissociation constant on a log10 scale (nM): the lower, the stronger. A mean of the replicates is given; it leaves out those without a signal. A pair that was not seen in any replicate is written "nd"; this usually means weak binding, but a binder can also be missed. The list is sorted by this average, lowest first, undetected variants last.

| CDR-H1 | CDR-H2 | CDR-H3 | group | mean log10 Kd (nM) | replicates with signal |
|---|---|---|---|---|---|
| GFDLDEYGIS | VIYADGKRTAYADDVK | GEVAGTFDL | En_Gen | -0.98 | 6 of 6 |
| GFDLNEYGIS | VIYADGRRTFYSDSVK | GEAAGTFDK | En_HC | -0.97 | 6 of 6 |
| GFDLNEYGIS | VIYADGVRTAYSDSVK | GETAGTFDV | En_Gen | -0.83 | 6 of 6 |
| GFDLNEYGIS | VIYADGMRTAYADKVK | GEVAGTFDI | En_Gen | -0.79 | 6 of 6 |
| GFDLNEYGIS | VIYADGKRTAYADSVK | GNVAGTFDE | En_Gen | -0.77 | 6 of 6 |
| GFDLNEYGIS | VIYADGRRTFYTDSVK | GANAGTFDL | En_HC | -0.64 | 6 of 6 |
| GFDLNEYGIS | VIYADGMRTAYTDNVK | GNVAGTFDL | En_Gen | -0.55 | 6 of 6 |
| GFDLDEYGIS | VIYADGRRTFYQDSVK | GNVAGTFDV | En_HC | -0.53 | 6 of 6 |
| GFDLNEYGIS | VIYADGMRTSYADSVK | GNQAGTFDI | En_Gen | -0.41 | 6 of 6 |
| GFNLNEYGIS | VIYADGRRTFYSDSVK | GETAGTFDS | En_HC | -0.28 | 6 of 6 |
| GFDLDEYGIS | VIYADGRRTFYQDSVK | GQNAGTFDL | En_HC | -0.24 | 6 of 6 |
| GFDLNEYGIS | VIYADGRRTYYADSVK | GEVAGTFDV | En_Gen | -0.22 | 6 of 6 |
| GFDLNEYGIS | VIYADGRRTAYMDSVK | GTNAGTFDQ | En_HC | -0.16 | 6 of 6 |
| GFDLNEYGIS | VIYADGVRTAYADSVK | GNEAGTFDI | En_Gen | -0.13 | 6 of 6 |
| GFDLDEYGIS | VIYADGRRTAYADNVK | GEVAGTFDT | En_Gen | -0.13 | 6 of 6 |
| GFELNSYGIS | VIYSDGRRTFYTDSVK | GKEAGTFDS | GPLM_Gibbs | -0.09 | 6 of 6 |
| GFALNEYGIS | VIYSDGRRTFYHDSVK | GRTAGTFDS | GP_Gen | -0.08 | 6 of 6 |
| GFDLNEYGIS | VIYADGMRTFYADSVK | GENAGTFDM | En_Gen | -0.04 | 6 of 6 |
| GFSLNEYGIS | VIYSDGRRTFYGDSVK | GRNAGTFDT | GPLM_Gibbs | -0.03 | 6 of 6 |
| GFELNEYGIS | VIYSDGRRTFYTDSVK | GRTAGTFDS | GPLM_Gen | 0.05 | 6 of 6 |
| GFDLNEYGIS | VIYADGKRTAYADSVK | GSNAGTFDI | En_Gen | 0.06 | 6 of 6 |
| GFELNSYGIS | VIYSDGRRTFYADSVK | GREAGTFDT | GPLM_Gibbs | 0.08 | 6 of 6 |
| GFPLNEYGIS | VIYSDGRRTFYTDSVK | GRFAGTFDS | GPLM_HC | 0.09 | 1 of 6 |
| GFELNSYGIS | VIYSDGRRTFYADSVK | GQAAGTFDS | GPLM_Gen | 0.21 | 6 of 6 |
| GFDLNSYGIS | VIYSDGRRTFYGDDVK | GSEAGTFDS | GP_Gibbs | 0.21 | 6 of 6 |
| GFTLNDYGIS | VIYSDGRRSFYSDSVK | GRQAGTFDS | GP_HC | 0.22 | 6 of 6 |
| GFDLNEYGIS | VIYADGSRTFYADSVK | GEQAGSFDQ | En_HC | 0.25 | 5 of 6 |
| GFSLNSYGIS | VIYSDGRRTFYIDSVK | GDAAGTFDS | GPLM_Gen | 0.25 | 6 of 6 |
| GFDLNEYGIS | VIYADGRRTFYADSVK | GNAAGTFDS | En_HC | 0.28 | 6 of 6 |
| GFTLESYGIS | VIYADGRRTFYGDSVK | GRAAGTFDC | Ctrl+GP_Gen | 0.37 | 5 of 12 |
| GFSLNSYGIS | VIYSDGRRTFYGDSVK | GSAAGTFDD | GPLM_Gen | 0.40 | 6 of 6 |
| GFDLDEYGIS | VIYADGCRVFYADTVK | GLLGKLVVV | En_Gibbs | 0.53 | 6 of 6 |
| GFELNEYGIS | VIYSDGRRTFYGDSVK | GKAAGTFDS | GP_Gen | 0.54 | 6 of 6 |
| GFTLNEYGIS | VIYSDGRRTFYKDSVK | GRFAGTFDS | GPLM_HC | 0.61 | 6 of 6 |
| GFTLNSYGIS | VIYADGSRTHYGDSVK | GRAAGTFDS | Ctrl | 0.72 | 6 of 6 |
| GFDLNSYGIS | VIYSDGRRTCYGDSVK | GRTAGTFDS | GP_Gen | 0.79 | 6 of 6 |
| GFSLNDYGIS | VIYSDGRRTFYGDSVK | GRKAGTFDS | GPLM_Gen | 0.79 | 6 of 6 |
| GFHLNSYGIS | VIYSDGRRTFYQDSVK | GREAGTFDT | GP_Gen | 0.86 | 5 of 6 |
| GFELNSYGIS | VIYSDGRRTFYIDSVK | GKNAGTFDS | GP_Gen | 0.86 | 6 of 6 |

Continued, with the values leading:

| mean log10 Kd (nM) | replicates with signal | CDR-H1 | CDR-H2 | CDR-H3 | group |
|---|---|---|---|---|---|
| 1.25 | 6 of 6 | KFTLNSYGIS | VIYSDGRRTFYADSVK | GQLAGTFDS | GPLM_HC |
| 1.42 | 6 of 6 | GFVLNEYGIS | VIYSDGRRTFYQDSVK | GEAAGTFDS | GP_Gibbs |
| 1.56 | 4 of 6 | GFSLNMYGIS | VIYSDGRRTFYIDSVK | GQAAGTFDS | GPLM_Gen |
| 1.66 | 6 of 6 | GFTLNSYGIS | VIYSDGRRTFYSDSVK | GRVGGTFDV | GP_HC |
| 1.92 | 3 of 6 | GFSLNSYGIS | VIYSDGRRTFYIDHVK | GQAAGTFDS | GP_Gibbs |
| 1.93 | 3 of 6 | GFELNSYGIS | VIYSDGRRTFYGDSVK | GRMAGTFDT | GPLM_Gibbs |
| 2.09 | 6 of 6 | GFGLNEYGIS | VIYSDGRRTFYMDSVK | GRNAGTFDS | GP_Gibbs |
| 2.27 | 5 of 6 | GFNLNSYGIS | VIYSDGRRTFYEDNVK | GRQAGTFDS | GP_Gibbs |
| 3.33 | 1 of 6 | GYDMEDYGIS | VIYADGVRQFYHDNFK | GQLAGTFLL | En_Gibbs |
| nd | 0 of 6 | GFTLNSYGIS | VIYSDGRRTFYGDSVK | GKATQTFDS | Ctrl |
| nd | 0 of 6 | GFTINSYGIS | VIYSDGRRTFYGDSVK | GRSAGKMDS | Ctrl |
| nd | 0 of 6 | GFTLNSYGIS | VIYSDGRRTFYGDSDK | GRAAGTGHS | Ctrl |
| nd | 0 of 6 | GHTLNEYGIS | VIYSDGRRTAYGDNVK | GRAAGTFDK | Ctrl |
| nd | 0 of 6 | GFKLDEFGIS | VIYADGHRVAVSDKVK | GHNVGAFFV | En_Gibbs |
| nd | 0 of 6 | GFDFQEYGIS | VIYADGMRTNALDNVK | GNIGATFDD | En_Gibbs |
| nd | 0 of 6 | GFNLNSYGIS | VIYSDGRRTFYKDSVK | GRAAGTFPS | Ctrl |
| nd | 0 of 6 | GFTLKEYGIS | VIYSDGRRTFYGDSVK | GRAAVTFDL | GP_HC |
| nd | 0 of 6 | GFHLNSYGIS | VIYSDGMRTFYVDSVK | GRTAGTFDS | GP_Gibbs |
| nd | 0 of 6 | GFSLDEMGIS | VIYADGKRMFYQDNVK | GVNSVTFNV | En_Gibbs |
| nd | 0 of 6 | GFNLDEYGVS | VIYADGKRTQYTNNFK | GENAGFFMS | En_Gibbs |
| nd | 0 of 6 | TFNLNDYGIS | VIYSDGERTFYGDSVK | GRAAGTFDS | Ctrl |
| nd | 0 of 6 | GVTLNEYGIS | VIYSDGRRTFYGDSVK | GRAAGTFDE | Ctrl |
| nd | 0 of 6 | GFTLNSYGIS | VIYSDGRRTFYGDAVK | GQAAGTFRS | Ctrl |
| nd | 0 of 6 | GFTLNEYGIS | VIYSDGRRTFYGDSVK | GTAAGCFDS | Ctrl |
| nd | 0 of 6 | GFDIEEYGIS | VIYADGVRAMYKSNFK | GKIAGTYLI | En_Gibbs |
| nd | 0 of 6 | GFTLNSYGIS | VIYADGRRTFYGDSVK | GRAAGTNDT | GP_HC |
| nd | 0 of 6 | GFTLNSYGIS | VIYSDGRRTFYDDNVK | GRYAGTFHS | Ctrl |
| nd | 0 of 6 | GFDIEKYGIS | VIYADGQRSAYDSSVK | GHEAGNFHV | En_Gibbs |
| nd | 0 of 6 | GFSLNEYGIS | VIYSDGRRTFYSDSVK | GRAAVTFDS | GPLM_HC |
| nd | 0 of 6 | GFTLAEYGIS | VIYSDGRRTFYTDRVK | GEFAGTFDS | Rand |
| nd | 0 of 6 | GFTLNSYGIS | VIYSDGRRTFYEDSVK | GRAAGTFDI | Ctrl |
| nd | 0 of 6 | GFTLKEYGIS | VIYSDGRRTFYGDSVK | GRAAVTFDT | GP_HC |
| nd | 0 of 6 | GQSLDEYGIS | VIYADGSRTAYAKSVK | GLGGFLNIM | En_Gibbs |
| nd | 0 of 6 | GFDLEEYGIS | VIYADGLRQYAIDNVK | GEISGKGGT | En_Gibbs |
| nd | 0 of 6 | GFWLDEYGIS | VIYADGKRTAYKNSVK | GQFTYNFDV | En_Gibbs |
| nd | 0 of 6 | GFDLDEYGIS | VIYADGVRKAYADSVK | GNVAGTFDL | En_Gen |
| nd | 0 of 6 | GFTLNSYGIS | VIYSDGRRTFYGDSVK | GRKAGTFDS | Ctrl |
| nd | 0 of 6 | GFDLNEYGIS | VIYADGLRTAYADSVK | GEVAGTFDV | En_Gen |
| nd | 0 of 6 | GFTLESYGIS | VIYSDGRRTFYGDSVK | GRLAGTFDS | Ctrl |
| nd | 0 of 6 | GFDLRSYGIS | VIYSDGWRTAYGDSVR | GRAAGTFDS | Ctrl |

Picked from the list: the 4 lowest averages where every replicate gave a value.

| CDR-H1 | CDR-H2 | CDR-H3 | group | mean log10 Kd (nM) | replicates with signal |
|---|---|---|---|---|---|
| GFDLDEYGIS | VIYADGKRTAYADDVK | GEVAGTFDL | En_Gen | -0.98 | 6 of 6 |
| GFDLNEYGIS | VIYADGRRTFYSDSVK | GEAAGTFDK | En_HC | -0.97 | 6 of 6 |
| GFDLNEYGIS | VIYADGVRTAYSDSVK | GETAGTFDV | En_Gen | -0.83 | 6 of 6 |
| GFDLNEYGIS | VIYADGMRTAYADKVK | GEVAGTFDI | En_Gen | -0.79 | 6 of 6 |

Where one sequence has several entries in the source, the replicates are pooled. The range of this assay differs from that of the first round, and the authors advise against merging the two. The authors averaged sequences with at least three values out of six and counted those with two or fewer as poor binders. Of ten entries with the parent sequence, four were seen in most replicates (averages 0.34 to 2.37), three in one and three in none, so single entries are noisy. As a blank, each scFv also met three strains without target: over all heavy chain designs, 1% of these pairings were detected, typically at 2.08 and seldom below 0.84.